Biological target: PSMA (Homo sapiens, UniProt Q04609)
Assay: Cell-based competitive PSMA binding assay on LNCaP cells against reference 68Ga[Ga]PSMA-10
Details: for Ki: read-out: Ki (PSMA binding affinities), competition with 68Ga[Ga]PSMA-10, 45 min incubation, calculated from inhibition curves

By UniProt entry, the sequences of proteins in these tests, tags left out.
UniProt Q04609, whole entry: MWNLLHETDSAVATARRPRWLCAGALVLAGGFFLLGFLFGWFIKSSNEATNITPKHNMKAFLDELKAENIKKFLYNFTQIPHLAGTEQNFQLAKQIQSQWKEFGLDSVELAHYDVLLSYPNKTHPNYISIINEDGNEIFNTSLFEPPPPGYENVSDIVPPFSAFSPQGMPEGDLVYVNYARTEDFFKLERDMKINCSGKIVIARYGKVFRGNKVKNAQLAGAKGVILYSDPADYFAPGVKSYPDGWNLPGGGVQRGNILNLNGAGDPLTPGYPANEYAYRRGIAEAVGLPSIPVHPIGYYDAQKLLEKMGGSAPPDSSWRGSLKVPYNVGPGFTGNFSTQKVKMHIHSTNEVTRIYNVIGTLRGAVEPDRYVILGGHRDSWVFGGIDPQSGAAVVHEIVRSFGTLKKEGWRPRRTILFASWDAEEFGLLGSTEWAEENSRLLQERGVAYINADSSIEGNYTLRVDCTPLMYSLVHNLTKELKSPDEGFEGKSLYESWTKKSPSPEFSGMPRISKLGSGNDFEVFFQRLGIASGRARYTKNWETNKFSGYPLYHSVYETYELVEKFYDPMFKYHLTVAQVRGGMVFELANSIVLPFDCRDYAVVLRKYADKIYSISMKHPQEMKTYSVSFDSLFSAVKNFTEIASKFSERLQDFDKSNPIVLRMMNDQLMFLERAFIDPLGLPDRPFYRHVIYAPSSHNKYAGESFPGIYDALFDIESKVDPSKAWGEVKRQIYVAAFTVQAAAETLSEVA

Ki | IC50 (read-out: IC50 (PSMA binding affinities), competition with 68Ga[Ga]PSMA-10, 45 min incubation) | Compound
18.1 nM |  | NCCN1CCN(CC(=O)O)CCN(C(CCC(=O)NCCNc2c(NCCCCC(NC(=O)NC(CCC(=O)O)C(=O)O)C(=O)O)c(=O)c2=O)C(=O)O)CCN(CC(=O)O)CC1 (stereo not drawn)
29.3 nM | 35.9 nM | CCOc1c(NCCCC[C@H](NC(=O)N[C@@H](CCC(=O)O)C(=O)O)C(=O)O)c(=O)c1=O

From patent US20230112958A1, “Smart Drug Delivery System and Pharmaceutical Kit for Dual Nuclear Medical Cytotoxic Theranostics” (SCV-SpezialChemikalienVertrieb GmbH, priority 2019, published 2023)
